Measured affinities in a library of Ab-14 light chain variants

Values reported by Li et al. 2023, doi:10.1038/s41467-023-39022-2 (FLAb copy).

The target is the same throughout: PDVDLGDISGINAS, from the HR2 region of SARS-CoV-2 spike.

Ab-14 is the parent antibody, in scFv form: VH, then three GGGGS repeats, then VL. The heavy chain is unchanged in all variants.
VH: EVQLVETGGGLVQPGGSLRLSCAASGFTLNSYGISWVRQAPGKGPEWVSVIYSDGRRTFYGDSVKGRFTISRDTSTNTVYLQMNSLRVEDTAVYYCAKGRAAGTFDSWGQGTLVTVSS
VL: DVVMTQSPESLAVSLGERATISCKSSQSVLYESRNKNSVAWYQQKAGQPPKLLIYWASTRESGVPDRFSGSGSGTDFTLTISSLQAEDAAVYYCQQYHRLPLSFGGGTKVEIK

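The starting antibody came from a phage panning campaign against this peptide. These sequences belong to a second round, designed from the earlier measurements on random variants of the parent. Their group label is 14L_Ctrl (Ctrl: baseline library sampled from a position-specific scoring matrix, with some repeated check sequences). The scFvs were displayed on barcoded MATa yeast, the peptide on MATalpha yeast. Binding brings cells together so that they mate, and sequencing counts the barcode pairs among the diploids. The ratio of observed to expected reads was calibrated, replicate by replicate, on BCL2-family standards whose Kd was known from biolayer interferometry. The assay was run in six technical replicates.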

Variants are written as CDR1, CDR2 and CDR3 of the light chain (limits as in the source). Parent: KSSQSVLYESRNKNSVA, WASTRES, QQYHRLPLS. Numbers give log10(Kd / nM), so 0 is 1 nM and 3 is 1 µM. Smaller is tighter. Where no diploid with the target was found in that replicate, the entry reads "n.d.": below detection, most likely a poor binder, though not proof of it.

CDR-L1,CDR-L2,CDR-L3,"replicates, log10 nM",control signals
VSSQSVLYESRNKNSVA,AASTRES,QQYHRLPLS,1.04 / 1.37 / 0.13 / 0.51 / 2.51 / 1.81,0/18
KSAISDLYESRSKNSVA,HASTRES,QQYHRLPLS,0.18 / 0.30 / 0.42 / 0.02 / 0.29 / 0.58,0/18
KSSQSVLLESRNKNSVA,YASTRES,QQYMRLPLS,0.45 / 0.46 / 0.61 / 0.35 / 0.53 / 0.77,0/18
KSSQSVLYESRNKNSVA,WSSTRES,QQYHRLSLS,n.d. / n.d. / n.d. / n.d. / n.d. / n.d.,0/18
KSSQSVLYESRNKNSQA,WASTRES,QQYHRLPLS,n.d. / n.d. / 1.17 / n.d. / n.d. / n.d.,0/18
KFSQSVLAESRNKNSVA,WASTRES,QQYRRLPLY,1.27 / 1.53 / 1.20 / 0.91 / 1.14 / 1.25,1/18 (3.52)
KKSQSVLYESRNKNSVA,WVVTRES,QQYHRLPLS,n.d. / n.d. / n.d. / n.d. / n.d. / n.d.,1/18 (2.46)
KSSQSVLDESRDKNSVA,NASTRES,QQYHRLPLS,0.40 / 0.13 / 0.34 / 0.11 / 0.16 / 0.32,1/18 (4.26)
KSSQSVLYESMNENSVA,GASTRES,QQYHRGPLS,1.45 / 1.06 / 0.86 / 0.53 / 0.28 / 1.98,1/18 (1.99)
KSSQSVRFESNNKNSVA,WASTRSS,FQYHRLPLS,n.d. / n.d. / n.d. / n.d. / n.d. / n.d.,0/18
KSSQQVLYESRNKNSVA,HASTRES,QQYGRLPLS,0.23 / 0.03 / 0.13 / -0.10 / 0.06 / 0.15,1/18 (1.68)
KSSQSVLMESRNKNSVA,WASVRES,QQYHRLPLS,1.68 / 1.75 / 1.48 / 1.43 / 1.65 / 1.17,0/18
KSSQSELEESRNKNSVA,HASTRES,QQYHRLPLA,0.38 / 0.25 / 0.24 / 0.13 / 0.10 / 0.46,3/18 (2.86)
KSSQSVLYESRNNNSVA,WASTRES,EQRHRLPWS,n.d. / n.d. / n.d. / n.d. / n.d. / n.d.,0/18
KSSISVLYESRNKNSVA,WASTRES,YQYHRLPLS,n.d. / n.d. / n.d. / n.d. / n.d. / n.d.,0/18
KSSQSVLYESRNKNWVA,EASFRES,QQYHRLPLS,1.66 / 1.18 / 1.64 / 1.19 / 1.84 / 1.78,0/18
KSSPSILYESRNKNSVA,WASTRES,QQYHRLPLS,1.64 / n.d. / 1.89 / 0.97 / 1.24 / 0.73,0/18
SSSQSVLMESRNKNSVA,WASTRES,QQYHRIPLS,n.d. / n.d. / n.d. / n.d. / n.d. / n.d.,0/18
KSSQSVLYESRNKNSVA,DDSTRES,QQYHRLPLS,0.70 / 0.61 / 0.36 / 0.35 / 0.23 / 0.52,2/18 (3.49)
KSSQSVPYESENKNSVA,EASTRES,QQYHRLPLS,1.86 / 0.40 / 0.51 / 0.37 / 0.98 / 1.05,0/18
KSSQSVYSESRNKNSVA,WASTRES,QQYHRLPLS,n.d. / 1.90 / 2.38 / 2.08 / 2.11 / 2.37,0/18
KSSQSVWYESDNKNSVA,WASTRES,QQYHRDPLS,n.d. / n.d. / n.d. / n.d. / n.d. / n.d.,0/18
KSQQSVLYESRRKNSVA,WASQRES,QQYHRLPLS,2.65 / n.d. / n.d. / 3.77 / 2.32 / 2.74,0/18
LSSQSVLYESRNDNSVA,SASTRES,QQYHRLPLS,2.36 / 0.54 / 0.87 / 0.84 / 1.33 / 1.61,0/18
KSSSSVLYESANKNSVA,NASTRES,QQYHRLPLN,0.03 / 0.86 / 0.12 / 0.07 / 0.27 / 0.34,0/18
KSSQSVLVETRNKNSVA,WASTRES,QQYHRLPLS,2.37 / 2.44 / n.d. / n.d. / 2.06 / 1.74,0/18
KSSQGVLYESANKNSVA,WASTRES,QQYHRLPLS,0.71 / 0.55 / 0.66 / 0.40 / 1.17 / 1.19,1/18 (2.10)
KSSQSVLYESRNKNSVA,WASTRES,QRYHRLPLS,1.59 / n.d. / 3.28 / n.d. / 2.24 / n.d.,0/18
KSSWSVLTESRNKNSVA,WASTRES,QQYHSLPLS,n.d. / 1.91 / n.d. / n.d. / n.d. / 2.12,0/18
KSSQNVLYESRNKNSLA,WASTRES,QQYHKLPLE,n.d. / 4.22 / n.d. / 1.84 / 2.65 / n.d.,0/18
KSSQSVYEESGNKNSVA,WASTRES,QQYHTLPLS,1.10 / 3.75 / 1.67 / 1.61 / 1.78 / 4.01,1/18 (3.43)
KSSQSVLYESGNKNSVA,WASTRES,QQYNRLPLS,1.07 / 1.20 / 1.24 / 0.96 / 0.91 / 1.20,1/18 (2.67)
KSSQSQLYASRNKNSVA,WASYRES,QQYHRLPLS,n.d. / n.d. / n.d. / n.d. / n.d. / n.d.,0/18

The 3 strongest on average among those seen in every replicate, once more:

CDR-L1,CDR-L2,CDR-L3,"replicates, log10 nM",control signals
KSSQQVLYESRNKNSVA,HASTRES,QQYGRLPLS,0.23 / 0.03 / 0.13 / -0.10 / 0.06 / 0.15,1/18 (1.68)
KSSQSVLDESRDKNSVA,NASTRES,QQYHRLPLS,0.40 / 0.13 / 0.34 / 0.11 / 0.16 / 0.32,1/18 (4.26)
KSSQSELEESRNKNSVA,HASTRES,QQYHRLPLA,0.38 / 0.25 / 0.24 / 0.13 / 0.10 / 0.46,3/18 (2.86)

The authors averaged sequences with at least three values out of six and counted those with two or fewer as poor binders. Background: pairings of all light chain designs with three empty control strains gave a value in 4% of cases (median 2.64, 5th percentile 1.59). Values in that range, when seen in few replicates, are hard to tell from nonspecific mating. The control count says in how many pairings with the empty strains this scFv gave a signal, with their mean in brackets. A sequence measured in both rounds can read differently, since the two assays cover different ranges.